Results on 1 molecule are retold here after paper PMC7503597 (International Journal of Molecular Sciences, 2020).

The chains behind the UniProt entries cited, without tags or fusion partners. Where a name states a change or a piece, a line headed by the entry shows the natural chain unless it says otherwise.
UniProt P35462, whole entry: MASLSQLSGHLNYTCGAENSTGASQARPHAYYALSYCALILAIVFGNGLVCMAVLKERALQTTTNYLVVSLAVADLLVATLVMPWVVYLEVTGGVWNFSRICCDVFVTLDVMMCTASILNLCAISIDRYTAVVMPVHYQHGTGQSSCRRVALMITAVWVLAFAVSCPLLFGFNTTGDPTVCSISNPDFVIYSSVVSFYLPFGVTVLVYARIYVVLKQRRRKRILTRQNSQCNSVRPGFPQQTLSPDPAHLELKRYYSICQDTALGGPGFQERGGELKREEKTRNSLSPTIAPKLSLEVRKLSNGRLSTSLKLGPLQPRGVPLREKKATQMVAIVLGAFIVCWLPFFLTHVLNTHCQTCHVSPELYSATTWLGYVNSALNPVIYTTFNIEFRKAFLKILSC

One may read the Ki as a measure of affinity in units of concentration, obtained from inhibition or displacement.

This assay has as its target T1, wild-type D3R (hD3R) (Homo sapiens, UniProt P35462).
T1 construct: gene DRD3
The assay is described as follows: biochemical.

`CCN1CCC[C@H]1CNC(=O)c1cc(S(N)(=O)=O)ccc1OC` [S-(−)-sulpiride] had a Ki of 63.1 nM.
